# Measured affinities in a library of Ab-95 light chain variants

Values reported by Engelhart et al. 2022, doi:10.1038/s41597-022-01779-4 (FLAb copy).

The target is the same throughout: PDVDLGDISGINAS, from the HR2 region of SARS-CoV-2 spike.

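The starting antibody came from a phage panning campaign against this peptide. Library AAYL52 holds single substitutions and randomly drawn double and triple substitutions in the CDRs. The scFvs were displayed on barcoded MATa yeast, the peptide on MATalpha yeast. Pairs that bind mate more often; barcode pairs of the diploids are counted by sequencing. A regression on co-assayed BCL2-family reference pairs converts the normalised counts of each replicate to an apparent Kd. The assay was run in three technical replicates.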

The variants keep the heavy chain, the linker and the frameworks of Ab-95 (scFv order VH, three GGGGS repeats, VL).
VH: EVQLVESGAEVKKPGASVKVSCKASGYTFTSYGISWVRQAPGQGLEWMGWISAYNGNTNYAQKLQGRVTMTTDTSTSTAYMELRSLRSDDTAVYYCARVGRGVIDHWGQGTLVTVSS
VL: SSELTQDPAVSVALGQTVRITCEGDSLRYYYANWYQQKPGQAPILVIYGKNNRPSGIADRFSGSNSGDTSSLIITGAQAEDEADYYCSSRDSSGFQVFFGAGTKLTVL

Changes read parent residue, position, new residue, counted from the first residue of the VL shown.
All variants listed here change V97 of the VL, counted from its first residue.
Numbers give log10(Kd / nM), so 0 is 1 nM and 3 is 1 µM. Smaller is tighter.
The mean shown is taken over the replicates in which the pair was detected.
An entry "nd" has no value in the source: the pair was not observed among the diploids in any replicate. This suggests poor binding but is not conclusive.
In this assay the parent's reference entry averaged 2.31; its copy inside this library read 2.25.

| changes | mean log10 Kd (nM) | replicates with signal | empty controls |
|---|---|---|---|
| E23W/R28N/V97Y | 3.30 | 3 of 3 | 4 of 9 |
| N52C/V97R | 4.11 | 1 of 3 | 2 of 9 |
| S92P/V97H/F98R | 2.67 | 3 of 3 | 2 of 9 |
| S26G/V97F/F98R | 2.55 | 3 of 3 | 4 of 9 |
| R53G/S55K/V97C | 3.98 | 2 of 3 | 4 of 9 |
| D25V/S55Y/V97Q | 2.87 | 3 of 3 | 1 of 9 |
| S26Y/D91I/V97K | 3.65 | 3 of 3 | 4 of 9 |
| G49Y/V97H/F98D | 2.95 | 1 of 3 | 1 of 9 |
| Y29W/S93R/V97E | 2.86 | 3 of 3 | 3 of 9 |
| G49M/V97R | 5.07 | 2 of 3 | 3 of 9 |
| D25T/S93M/V97Q | 3.32 | 2 of 3 | 0 of 9 |
| S89M/S93Q/V97Q | 3.35 | 2 of 3 | 2 of 9 |
| A32M/Q96S/V97Y | 3.88 | 1 of 3 | 5 of 9 |
| N51M/S93V/V97L | 4.09 | 2 of 3 | 2 of 9 |
| S55M/S88I/V97I | 3.62 | 1 of 3 | 1 of 9 |
| E23S/Y29K/V97K | 3.60 | 3 of 3 | 5 of 9 |
| Y31R/R53L/V97Q | 3.30 | 1 of 3 | 4 of 9 |
| L27A/R28I/V97I | 3.91 | 1 of 3 | 3 of 9 |
| S26E/L27P/V97C | nd | 0 of 3 | 2 of 9 |
| G24M/D91I/V97G | 3.65 | 3 of 3 | 4 of 9 |
| Y30N/D91Q/V97N | 1.58 | 3 of 3 | 6 of 9 |
| R28C/V97W/F98Y | 3.78 | 3 of 3 | 2 of 9 |
| Y31Q/R53G/V97T | 3.32 | 2 of 3 | 2 of 9 |
| G24Y/Y31T/V97P | 4.39 | 2 of 3 | 0 of 9 |
| R90H/F95Q/V97Q | 2.43 | 3 of 3 | 1 of 9 |
| Y31T/S93V/V97N | 2.17 | 3 of 3 | 2 of 9 |
| G24E/N33S/V97R | nd | 0 of 3 | 2 of 9 |
| Y30P/Y31Q/V97R | 1.42 | 3 of 3 | 2 of 9 |
| Y31I/A32G/V97S | 4.71 | 2 of 3 | 0 of 9 |
| S89H/D91W/V97S | 1.90 | 3 of 3 | 4 of 9 |
| Y30F/A32I/V97K | nd | 0 of 3 | 5 of 9 |
| D25N/S92R/V97I | 3.02 | 3 of 3 | 2 of 9 |
| Y29M/D91H/V97E | 2.76 | 3 of 3 | 1 of 9 |
| R28E/F95P/V97A | nd | 0 of 3 | 0 of 9 |
| Y29R/S55D/V97Y | 4.13 | 1 of 3 | 0 of 9 |
| G49H/P54I/V97C | 4.00 | 1 of 3 | 6 of 9 |
| Y30I/A32N/V97L | 3.91 | 1 of 3 | 1 of 9 |
| L27N/Q96C/V97D | 4.10 | 1 of 3 | 0 of 9 |
| Y31V/R53H/V97L | nd | 0 of 3 | 1 of 9 |
| R90T/F95M/V97T | nd | 0 of 3 | 3 of 9 |
| R53Y/V97H | 4.10 | 3 of 3 | 2 of 9 |
| Y29I/V97K | nd | 0 of 3 | 0 of 9 |
| S55P/V97I | 2.66 | 3 of 3 | 2 of 9 |
| L27W/R90T/V97H | 2.74 | 1 of 3 | 0 of 9 |
| S92M/F95Y/V97C | 4.02 | 2 of 3 | 3 of 9 |
| Y29P/V97W/F98R | 3.47 | 3 of 3 | 3 of 9 |
| F95E/V97S/F98M | 1.53 | 3 of 3 | 2 of 9 |
| G49W/N51A/V97E | nd | 0 of 3 | 1 of 9 |
| S26W/S92T/V97F | nd | 0 of 3 | 2 of 9 |
| D91C/S93K/V97S | nd | 0 of 3 | 0 of 9 |
| N33R/G49Y/V97K | 3.36 | 1 of 3 | 1 of 9 |
| Y31K/V97R | 2.55 | 3 of 3 | 1 of 9 |
| V97W | 1.73 | 3 of 3 | 2 of 9 |
| Y31S/G49F/V97R | 5.28 | 1 of 3 | 4 of 9 |
| P54H/S92Y/V97G | nd | 0 of 3 | 2 of 9 |
| S92L/G94F/V97Q | 2.69 | 3 of 3 | 3 of 9 |
| Y30K/A32L/V97D | 4.21 | 1 of 3 | 2 of 9 |
| D25N/Y29K/V97E | 3.78 | 3 of 3 | 1 of 9 |
| R53Y/D91F/V97A | 4.55 | 1 of 3 | 3 of 9 |
| R90H/S93D/V97E | 5.69 | 1 of 3 | 3 of 9 |
| S26T/Y29N/V97W | 1.89 | 3 of 3 | 1 of 9 |
| Y30C/R53C/V97D | 3.00 | 1 of 3 | 2 of 9 |
| Y30V/G94V/V97A | 2.13 | 3 of 3 | 1 of 9 |
| S88G/S92I/V97Q | 2.59 | 3 of 3 | 4 of 9 |
| S92N/S93I/V97T | 2.01 | 3 of 3 | 5 of 9 |
| Q96C/V97R | 2.00 | 3 of 3 | 4 of 9 |
| P54F/R90I/V97G | 3.25 | 2 of 3 | 0 of 9 |
| P54W/D91F/V97M | 4.15 | 1 of 3 | 2 of 9 |

Top 5 of the variants detected in all replicates, tightest first:

| changes | mean log10 Kd (nM) | replicates with signal | empty controls |
|---|---|---|---|
| Y30P/Y31Q/V97R | 1.42 | 3 of 3 | 2 of 9 |
| F95E/V97S/F98M | 1.53 | 3 of 3 | 2 of 9 |
| Y30N/D91Q/V97N | 1.58 | 3 of 3 | 6 of 9 |
| V97W | 1.73 | 3 of 3 | 2 of 9 |
| S26T/Y29N/V97W | 1.89 | 3 of 3 | 1 of 9 |

Empty control strains, which show no peptide, gave a signal in 28% of pairings with library AAYL52; the median was 3.91 and 95% of these signals were weaker than 2.90. No background was subtracted. The control count says in how many pairings with the empty strains this scFv gave a signal.